Data: patent US12129235B2, “TSPO binders” (The University Court of the University of Glasgow, priority 2018, dated 2024)
Values joined by “and” are separate entries in the source; they are usually repeats but may differ in a detail not shown here. Identical values can stand only once.

Amino acid sequences for entries named in this document (tags omitted).
UniProt P30536, whole entry: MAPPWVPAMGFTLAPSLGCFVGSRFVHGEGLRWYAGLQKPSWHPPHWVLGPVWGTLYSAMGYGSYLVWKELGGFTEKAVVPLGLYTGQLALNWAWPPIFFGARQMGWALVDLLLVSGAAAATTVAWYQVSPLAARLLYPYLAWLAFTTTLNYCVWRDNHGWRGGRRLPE

Key:
TSPO [1] = target: T1, TSPO (Homo sapiens, UniProt P30536); experiment: Competition binding assay against ^3H-PK11195 in human brain homogenate (HAB, MAB, LAB); parameters: other: human brain; other: human heart; conditions: read-out: mean affinity (Ki)
Experimental: (§1) All studies using human tissue were conducted in accordance with the East of Scotland Research Ethics Service (Edinburgh Brain Bank, 11/ES/0022). […] To exclude sex dependent differences in TSPO binding (Fairweather et al.), only male samples were utilized in this study. Sample tissues were homogenized in 10× w/v buffer (50 mM Tris-Base, pH 7.4, 4° C.) before centrifugation (32,000 g, 10 min, 4° C.). Tissue pellets were then resuspended in 10× w/v buffer and centrifuged again before re-suspending them in buffer (2 mL). Samples were then assessed for protein concentration using the Bio-Rad protein assay (Bio-Rad, USA), aliquoted and stored at −80° C. until use.
(§2) Competition binding assays were carried out as previously reported (Blair et al. (Med. Chem. Commun.)). […] A concentration of 8 μM was used to determine non-specific binding for each ligand. Binding was terminated with the addition of 2 mL of ice cold buffer before being immediate filtered over a Whatman GF/B filters (Whatman, UK) pre-treated with 0.3% polyethylenimine (Sigma-Aldrich, USA) using a Brandel harvester (Brandel, USA). Filter paper was then removed, placed into 2.5 mL of Optiphase HiSafe 3 (Perkin Elmer, USA) and counted 48 hours later on a Hidex 300 SL (Hidex, Finland). […] Affinity values (Ki) were calculated by fitting individual tissue samples based on the mean group fitting.

TSPO [2] = target: T1, TSPO; experiment: Competition binding assay against ^3H-PK11195 in human heart homogenate (HAB, MAB, LAB); parameters: other: human brain; other: human heart; conditions: read-out: mean affinity (Ki)
Experimental: as §1, §2

TSPO [3] = target: T1, TSPO; conditions: saturation binding curves
Experimental: as §1, §2

CCC(C)N(C)C(=O)c1cc2ccccc2c(-c2ccccc2Cl)n1 (stereo not drawn) [PK11195]
Ki (TSPO [1]): 1.2 nM
Ki (TSPO [2]): 1.7 nM and 1.2 nM
Kd (TSPO [3]): 13.9 nM
